# GIV Gai3 FP: inhibitors of GIV GBA-motif binding to rat Galpha-i3; P08753; Galpha-i3/FITC-GIV peptide fluorescence polarization, 90 min; active compounds read low; scaled: aluminum fluoride 0%, vehicle 100%; percent of control (FP), % (test concentration not listed); 210,000 tested, 0.42% active; AID 1224905;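 active = replicate mean at 85% of control or lower, very high polarization wells dropped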;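 note: lower values mean more displacement of the GIV peptide from Galpha-i3; wells of about 15 µL received 100 nL stock; the first replicate is given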
# HCMV UL50-53 inh: inhibitors of HCMV UL50-UL53 interaction, biochemical, HTRF; HCMV UL50-UL53 nuclear egress complex (human cytomegalovirus); inhibition, % (concentration not given with the values); normalized percent inhibition; 0.15% of 190,000 active; AID 1918969, 2023; in the data active = inhibition above about 27%, passing the limit was not always enough
# GIV-Gai FP conf: inhibitors of GIV peptide binding to Galpha-i3, confirmation, biochemical, fluorescence polarization, FITC-GIV peptide, rat Galphai3; shares compounds with GIV Gai3 FP; stronger effect = lower value; fluorescence polarization, mP at 100 µM; 38% of 580 active;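 active = inhibition score of 15 or more, meaning 100 minus mean polarization as percent of control over three replicates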
# GIV-Gai AS conf: inhibitors of GIV binding to Galpha-i3, confirmation, orthogonal assay for GIV-Galpha-i inhibitor project, biochemical, AlphaScreen, His-GIV, GST-Galphai3; purified proteins, 90 min; stronger effect = lower value; AlphaScreen counts at 100 µM; AID 1259351, 2017; 39% of 580 active; shares compounds with GIV Gai3 FP;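 active = inhibition score at or above a set limit, where the score is 100 minus the three-replicate mean percent of control signal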
# The depositor's hits bear a star; / = no result; ! = repeats disagree. Sampled rows, rich in hits. Any-hit rate of the full collection: about 0.46%.
# Second line of a record – GIV Gai3 FP	HCMV UL50-53 inh	GIV-Gai FP conf	GIV-Gai AS conf
> COc1ccc(C2c3sc(=O)[nH]c3SC3C(=O)N(c4ccccc4)C(=O)C32)cc1 (stereo not drawn)
    111.6	-25.2	/	/
> O=C1NC(=O)C2C1Sc1[nH]c(=O)sc1C2c1ccco1 (stereo not drawn)
    78.3*	-86.3	64.8	3023*
> CCOC(=O)C1=C(C)OC(N)=C(C#N)C1c1ccc(OCc2ccccc2)cc1 (stereo not drawn)
    110.9	/	/	/
> O=C1/C(=C/c2ccc(Cl)cc2)C=C(c2ccccc2)N1c1ccc(Cl)cc1
    82.2*	/	103	40363
> O=C1/C(=C/c2ccc(Cl)cc2)C=C(c2ccccc2)N1c1ccccc1
    125.4	/	/	/
> Cc1cc(OCC(=O)NCc2ccc3c(c2)OCO3)ccc1Cl
    109.3	-1.9	/	/
> Cc1nn(Cc2ccccc2Cl)c(C)c1C(=O)N(CC1CCCO1)C1CCS(=O)(=O)C1 (stereo not drawn)
    /	6.7	/	/
> O=C(O)c1cc2c3c(c1)C1C=CCC1C(c1ccccc1)N3CC1CC=CC21 (stereo not drawn)
    81.4*	8.7	47.1*	7304*
> O=C(O)c1cc2c3c(c1)C1C=CCC1C(c1cccc([N+](=O)[O-])c1)N3CC1CC=CC21 (stereo not drawn)
    100.5	-7.0	/	/
> O=C(O)c1cc2c3c(c1)C1C=CCC1C(c1ccc(F)cc1)N3CC1CC=CC21 (stereo not drawn)
    98.5	4.6	/	/
> O=C(O)c1cc2c3c(c1)C1C=CCC1C(c1ccccc1F)N3CC1CC=CC21 (stereo not drawn)
    74.1*	-18.9	21.2*	3685*
> N#CC(C(=O)COc1ccccc1)c1nc2ccccc2[nH]1 (stereo not drawn)
    /	-37.1	/	/
> CCc1ccc(NC(=O)N2CCC(n3cnc4ccccc4c3=O)CC2)cc1
    109.6	/	/	/
> COc1ccc(C2c3cccn3-c3sc4c(c3CN2C(=O)NC(C)C)CCN(C)C4)cc1 (stereo not drawn)
    113.0	-5.2	/	/
> COc1ccc(NC(=S)Nc2ccc(N3CCOCC3)c3nonc23)cc1OC
    72.0*	-63.2	55.6*	23631*
> O=C(Nc1ccc(N2CCOCC2)c2nonc12)c1cccs1
    109.6	4.5	/	/
> Cc1cccc(C)c1NC(=O)CNC(=O)C(C)Oc1ccccc1C#N (stereo not drawn)
    /	17.1	/	/
> CN(c1ccc(Br)cc1)S(=O)(=O)c1ccc2[nH]cc(C(=O)NCc3ccccn3)c(=O)c2c1
    64.0*	/	47.6*	60749
> CCCCCCNC(=O)c1c[nH]c2ccc(S(=O)(=O)N(C)c3ccc(Br)cc3)cc2c1=O
    111.6	/	/	/
> COc1ccc(S(=O)(=O)n2nnc3ccccc32)c2ccccc12
    107.8	/	/	/
> Cc1ccc(C(=O)Nc2ccc(S(=O)(=O)O)c3cc(S(=O)(=O)O)cc(S(=O)(=O)O)c23)cc1NC(=O)c1cccc(NC(=O)Nc2cccc(C(=O)Nc3cc(C(=O)Nc4ccc(S(=O)(=O)O)c5cc(S(=O)(=O)O)cc(S(=O)(=O)O)c45)ccc3C)c2)c1
    76.2*!	-50.1	61.2*	12181*
> Cc1ccc(C)c(NC(=O)c2cccc(S(=O)(=O)N3CCCC3)c2)c1
    /	9.5	/	/
> O=C(NCCn1cc(SCC(=O)N2CCCCC2)c2ccccc21)c1ccccc1F
    111.4	/	/	/
> O=C(O)COc1ccc(/C=C2\C(=O)NC(=S)N(c3ccc(Cl)cc3)C2=O)cc1Br
    73.0*	-29.5	33.9*	55572
> O=C(O)COc1ccc(/C=C2\C(=O)NC(=S)N(c3ccc(F)cc3)C2=O)cc1Br
    91.8	-33.2	/	/
> COc1cc(/C=C2\C(=O)NC(=O)N(C)C2=O)ccc1OCc1ccc(C(=O)O)cc1
    106.6	0.3	/	/
> O=C1NC(=S)NC(=O)C1=Cc1ccc(OCc2ccc(C(=O)O)cc2)c(Br)c1
    85.5	-19.5	10.6*	2330*
> O=C(CCc1nc2sc3c(c2c(=O)[nH]1)CCCCC3)N1CCN(c2cccc(Cl)c2)CC1
    107.4	-29.7	/	/
> O=C(O)c1cccc(S(=O)(=O)/N=C2/C=C(NS(=O)(=O)c3ccccc3)C(=O)c3ccccc32)c1
    62.6*	/	61.5	12814*
> O=C1C(NS(=O)(=O)c2ccccc2)=C/C(=N\S(=O)(=O)c2ccc(F)cc2)c2ccccc21
    91.5	/	/	/
> CCNC(=O)N1CCC(OCC)CC1
    98.1	/	/	/
> CCOC(=O)C1=CS/C(=C2/C(=S)C(C)(C)Nc3ccc(C)cc32)S1
    95.5	/	/	/
> Cn1c(=O)c(=O)[nH]c2cnccc21
    96.9	-25.9	/	/
> O=C(CN1CCN(Cc2ccccc2)C1=O)NCCN1CCOCC1
    108.2	-0.7	/	/
> COc1ccccc1OCc1ccoc1C(=O)O
    81.8*	-5.2	68.6	18278*
> COc1ccc(C(=O)NCc2ccoc2C(=O)O)cc1
    /	-12.8	/	/
> CC(=O)OCC12COC(c3ccc(OC(C)=O)cc3)C(C(C)=CC1C)C2C (stereo not drawn)
    109.0	/	/	/
> Cc1ccccc1CSCc1ccc(C(=O)NC2CCCC2)o1
    108.1	0.7	/	/
> O=C(O)c1cc(NS(=O)(=O)c2cc(F)ccc2F)cnc1N1CCOCC1
    56.8*	-9.7	32.6*	29995
> O=C(O)c1cc(NS(=O)(=O)c2cc(F)ccc2F)ccc1N1CCN(c2ccc(F)cc2)CC1
    104.6	-31.0	/	/
> C=CCN1CC(c2nc3ccccc3n2CC(O)COc2cc(C)cc(C)c2)CC1=O (stereo not drawn)
    100.5	8.3	/	/
> Cc1cc(C=Nc2ccc(O)c(C(=O)O)c2)c(C)n1-c1ccc(N(C)C)cc1
    /	-12.0	/	/
> Cc1[nH][nH]c(=O)c1C=Nc1ccc(O)c(C(=O)O)c1
    87.9	3.7	63.4	6341*
> COc1ccc(/C=C(/NC(=O)c2ccccc2)C(=O)N/N=C\c2ccc([N+](=O)[O-])s2)cc1
    106.7	/	/	/
> CCN1/C(=C(\C#N)c2nc(C#N)c(C#N)nc2N2CCOCC2)Nc2ccccc21
    66.5*	-7.0	75.4	32831
> CN1CCN(c2nc(C#N)c(C#N)nc2C(C#N)=C2Nc3ccccc3N2)CC1
    100.1	-23.7	/	/
> O=C(/C=C/c1ccccc1)NCCCN1CCOCC1
    /	-39.7	/	/
> NC(=O)C[n+]1ccc(/C=N/O)cc1
    107.5	-79.5	/	/
> NC(=O)C[n+]1cccc2ccccc21
    79.6*	/	48*	5016*
> O=C1NC2(CCOc3ccccc32)C(=O)N1CCOc1c(Cl)cccc1Cl (stereo not drawn)
    /	-27.6	/	/

# (cont.)
# Second line of a record – GIV Gai3 FP	HCMV UL50-53 inh	GIV-Gai FP conf	GIV-Gai AS conf
> Cc1sc2nc(-c3cccs3)oc(=O)c2c1C
    /	-0.1	/	/
> Cc1sc2nc(/C=C/c3ccco3)oc(=O)c2c1C
    78.7*	-9.3	60.5	46890
> CCOC(=O)C1=C(SC)NC(=O)C(C)(C#N)C12CCCCC2 (stereo not drawn)
    /	-1.5	/	/
> Cc1ccsc1C1C=C(c2cccc(Br)c2)Nc2ncnn21 (stereo not drawn)
    80.8*	/	47.3*	49839
> CCc1ccc(C2=CC(c3sccc3C)n3ncnc3N2)cc1 (stereo not drawn)
    103.7	/	/	/
> O=C(O)c1ccc(-n2ncc(Cl)c(Cl)c2=O)cc1
    77.9*!	-19.1	62.4	39055

# In a second layout: 4 of the compounds above
> Cc1sc2nc(/C=C/c3ccco3)oc(=O)c2c1C
  GIV Gai3 FP: 78.7*
  HCMV UL50-53 inh: -9.3
  GIV-Gai FP conf: 60.5
  GIV-Gai AS conf: 46890

> CCOC(=O)C1=C(SC)NC(=O)C(C)(C#N)C12CCCCC2 (stereo not drawn)
  GIV Gai3 FP: /
  HCMV UL50-53 inh: -1.5
  GIV-Gai FP conf: /
  GIV-Gai AS conf: /

> Cc1ccsc1C1C=C(c2cccc(Br)c2)Nc2ncnn21 (stereo not drawn)
  GIV Gai3 FP: 80.8*
  HCMV UL50-53 inh: /
  GIV-Gai FP conf: 47.3*
  GIV-Gai AS conf: 49839

> CCc1ccc(C2=CC(c3sccc3C)n3ncnc3N2)cc1 (stereo not drawn)
  GIV Gai3 FP: 103.7
  HCMV UL50-53 inh: /
  GIV-Gai FP conf: /
  GIV-Gai AS conf: /

# Assay outcomes (PubChem)
